The numbers were not newly measured in patent US6117976A, “Manufacture and use of polypeptides tagged using binding molecules” (Medical Research Council, priority 1993, dated 2000), which cites them from elsewhere.

The target in this data set is calmodulin (Homo sapiens, UniProt P0DP23). Particulars: Table 1, affinities of calmodulin-binding peptides; cited from earlier work.

Regarding INWKGIAAMAKKLL-NH2 [Mastoparan X], the Kd was 1 nM.
Take VNWKKIGQHILSVL-NH2 [Mastoparan Polist.]: the Kd was 4 nM.
